Assay results: patent US20150018268A1, “MULTIVALENT SYNTHETIC COMPOUNDS AS ANTIBIOTIC TREATMENT” (CENTRE NATIONAL DE LA RECHERCHE SCIENTIFIQUE (CNRS), priority 2010, published 2015)

What was measured:
Settings in all cases: 24 h
[1] = system: Bacillus Subtilis; format: cell-based
Method: (§1) FIG. 2. Effect of Nucant 6L (N6L) on the proliferation of several Gram-positive (Gram+) bacteria species. All bacteria were cultivated to mid-logarithmic phase (optical density at 600 nm ranging from 0.2 to 0.5) in culture medium. Bacteria were then washed and diluted 1/100 in culture medium (LB) and incubated at 37° C. in 96-wells culture plate in the presence or absence of various concentrations of N6L ranging from 10 to 1000 μM. After an incubation period of 24 hours, optical density was measured to quantify the amount of bacteria in each well. B. Megaterium: Bacillus megaterium; S. aureus Met R: Meticillin resistant staphylococcus aureus; S. aureus Pen R: Penicillin resistant staphylococcus aureus; S. aureus Pen S: Penicillin sensitive staphylococcus aureus; B. subtilis: Bacillus subtilis; E. sakazaki: Enterobacter sakazaki.
(§2) All bacteria were cultivated to mid-logarithmic phase (optical density at 600 nm ranging from 0.2 to 0.5) in culture medium. Bacteria were then washed and diluted 1/100 in culture medium (LB) and incubated at 37° C. in 96-wells culture plate in the presence or absence of various concentrations of N6L ranging from 10 to 1000 μM. After an incubation period of 24 hours, optical density was measured to quantify the amount of bacteria in each well.

[2] = system: Bacillus Megaterium; format: cell-based
Method: as §1, §2

[3] = system: Escherichia Coli; format: cell-based
Method: (§3) FIG. 3. Effect of Nucant 6L (N6L) on the proliferation of several Gram-negative (Gram-) bacteria species. All bacteria were cultivated to mid-logarithmic phase (optical density at 600 nm ranging from 0.2 to 0.5) in culture medium. Bacteria were then washed and diluted 1/100 in culture medium (LB) and incubated at 37° C. in 96-wells culture plate in the presence or absence of various concentrations of […] ranging from 10 to 1000 μM. […] C. freundii: Citrobacter freundii; Y. enterocolitica: Yersinia enterocolitica; P. aeruginosa: Pseudomonas aeruginosa; A. baumanii: Acinetobacter baumanii; E. coli: Escherichia coli. All bacteria were cultivated to mid-logarithmic phase (optical density at 600 nm ranging from 0.2 to 0.5) in culture medium. Bacteria were then washed and diluted 1/100 in culture medium (LB) and incubated at 37° C. in 96-wells culture plate in the presence or absence of various concentrations of […] ranging from 10 to 1000 μM.

[4] = system: Citrobacter Freundii; format: cell-based
Method: as §3

[5] = system: Yersinia Enterocolitica; format: cell-based
Method: as §3

[6] = system: Acinetobacter Baumanii; format: cell-based
Method: as §3

[7] = system: Pseudomonas Aeruginosa; format: cell-based
Method: as §3

[8] = system: Staphilococcus Aureus (meticillin resistant); format: cell-based, Staphylococcus aureus
Method: as §1, §2

[9] = system: Staphilococcus Aureus (penicillin resistant); format: cell-based, Staphylococcus aureus
Method: as §1, §2

[10] = system: Staphilococcus Aureus (penicillin sensitive); format: cell-based, Staphylococcus aureus
Method: as §1, §2

## CC(=O)N[C@@H](CCCCNC(=O)[C@H](CCCNC(=N)N)NC(=O)[C@@H]1CCCN1C[C@@H](N)CCCCN)C(=O)NC(C)(C)C(=O)NCC(=O)N[C@@H](CCCCNC(=O)[C@H](CCCNC(=N)N)NC(=O)[C@@H]1CCCN1C[C@@H](N)CCCCN)C(=O)NC(C)(C)C(=O)NCC(=O)N[C@@H](CCCCNC(=O)[C@H](CCCNC(=N)N)NC(=O)[C@@H]1CCCN1C[C@@H](N)CCCCN)C(=O)NC(C)(C)C(=O)NCC(=O)N[C@@H](CCCCNC(=O)[C@H](CCCNC(=N)N)NC(=O)[C@@H]1CCCN1C[C@@H](N)CCCCN)C(=O)NC(C)(C)C(=O)NCC(=O)N[C@@H](CCCCNC(=O)[C@H](CCCNC(=N)N)NC(=O)[C@@H]1CCCN1C[C@@H](N)CCCCN)C(=O)NC(C)(C)C(=O)NCC(=O)N[C@@H](CCCCNC(=O)[C@H](CCCNC(=N)N)NC(=O)[C@@H]1CCCN1C[C@@H](N)CCCCN)C(=O)NC(C)(C)C(=O)NCC(N)=O [Nucant N6L]
[1]
  IC50: < 50 µM
[2]
  IC50: < 20 µM
[3]
  IC50: 20 µM
[4]
  IC50: 80 µM
[5]
  IC50: 45 µM
[6]
  IC50: 300 µM
[7]
  IC50: 30 µM
[8]
  IC50: 180 µM
[9]
  IC50: 70 µM
[10]
  IC50: 180 µM
